ChEMBL document CHEMBL4627399, “Synthesis and Structure-Activity Relationships of 5'-Aryl-14-alkoxypyridomorphinans: Identification of a μ Opioid Receptor Agonist/δ Opioid Receptor Antagonist Ligand with Systemic Antinociceptive Activity and Diminished Opioid Side Effects” (J Med Chem, 2020)

Tests used:
[1] = Distribution coefficient between 1-octanol and phosphate buffer, logD of the compound at 50 nM incubated for 24 hrs by LC-MS/MS analysis; assay type: physicochemical; settings: octanol/water, 0.05 µM
[2] = Half life in CD-1 mouse liver microsomes at 1 uM measured up to 60 mins by reversed phase LC method; assay type: ADME, Microsome; settings: 1 h
Mus musculus [3] = test: Antinociceptive activity in CD-1 mouse assessed as time above 30% onset antinociceptive effect at 10 nmol, icv measured up to 5 hrs post dose by warm water tail-flick assay; assay type: functional
Mus musculus [4] = test: Antinociceptive activity in CD-1 mouse assessed as maximal peak effect at 1 to 10 mg/kg, iv measured at 45 mins by warm water tail-flick assay relative to control; assay type: functional

SMILES | logD [1] | t1/2 [2] | Time (Mus musculus [3]) | Activity (Mus musculus [4])
Cc1nocc1-c1cnc2c(c1)C[C@@]1(OCCCc3ccccc3)[C@H]3Cc4ccc(O)c5c4[C@@]1(CCN3CC1CC1)[C@H]2O5 | 2.11 | 18.5 min | – | –
CC(=O)Nc1ccc(-c2cnc3c(c2)C[C@@]2(OCCCc4ccccc4)[C@H]4Cc5ccc(O)c6c5[C@@]2(CCN4CC2CC2)[C@H]3O6)cc1 | 3.15 | 11 min | – | –
Oc1ccc2c3c1O[C@H]1c4ncc(-c5ccccc5)cc4C[C@@]4(OCCCC5CCCCC5)[C@@H](C2)N(CC2CC2)CC[C@]314 | 3.27 | 27.6 min | – | –
Oc1ccc2c3c1O[C@H]1c4ncc(-c5ccc(Cl)cc5)cc4C[C@@]4(OCc5ccc6ccccc6n5)[C@@H](C2)N(CC2CC2)CC[C@]314 | 2.79 | 9.4 min | – | –
Oc1ccc2c3c1O[C@H]1c4ncc(-c5ccc(F)c(F)c5)cc4C[C@@]4(OCCCc5ccccc5)[C@@H](C2)N(CC2CC2)CC[C@]314 | 2.92 | 8.08 min | – | –
CN(C)c1cccc(-c2cnc3c(c2)C[C@@]2(OCCCc4ccccc4)[C@H]4Cc5ccc(O)c6c5[C@@]2(CCN4CC2CC2)[C@H]3O6)c1 | 3.38 | 7.1 min | – | –
Cc1cc(-c2cnc3c(c2)C[C@@]2(OCCCc4ccccc4)[C@H]4Cc5ccc(O)c6c5[C@@]2(CCN4CC2CC2)[C@H]3O6)ccn1 | 1.74 | 9.6 min | – | –
CC(=O)Nc1cccc(-c2cnc3c(c2)C[C@@]2(OCCCc4ccccc4)[C@H]4Cc5ccc(O)c6c5[C@@]2(CCN4CC2CC2)[C@H]3O6)c1 | 2.6 | 14 min | – | –
Oc1ccc2c3c1O[C@H]1c4ncc(-n5cccc5)cc4C[C@@]4(OCCCc5ccccc5)[C@@H](C2)N(CC2CC2)CC[C@]314 | 3.3 | 7.07 min | – | –
Cn1cc(-c2cnc3c(c2)C[C@@]2(OCCCc4ccccc4)[C@H]4Cc5ccc(O)c6c5[C@@]2(CCN4CC2CC2)[C@H]3O6)cn1 | 0.943 | 21.7 min | – | –
Cc1cc(F)ccc1-c1cnc2c(c1)C[C@@]1(OCCCc3ccccc3)[C@H]3Cc4ccc(O)c5c4[C@@]1(CCN3CC1CC1)[C@H]2O5 | 4.52 | 8.27 min | 10 min | –
Oc1ccc2c3c1O[C@H]1c4ncc(-c5cn[nH]c5)cc4C[C@@]4(OCCCc5ccccc5)[C@@H](C2)N(CC2CC2)CC[C@]314 | 0.707 | 7 min | – | –
Oc1cccc(-c2cnc3c(c2)C[C@@]2(OCCCc4ccccc4)[C@H]4Cc5ccc(O)c6c5[C@@]2(CCN4CC2CC2)[C@H]3O6)c1 | 3.73 | 7.36 min | – | –
Oc1ccc2c3c1O[C@H]1c4ncc(-c5ccccc5)cc4C[C@@]4(OCCCC5CCOCC5)[C@@H](C2)N(CC2CC2)CC[C@]314 | 3.37 | 6.49 min | – | –
Oc1ccc2c3c1O[C@H]1c4ncc(-c5ccc(Br)cc5)cc4C[C@@]4(OCCCc5ccccc5)[C@@H](C2)N(CC2CC2)CC[C@]314 | 3.64 | 9.64 min | – | –
Cc1cccc(-c2cnc3c(c2)C[C@@]2(OCCCc4ccccc4)[C@H]4Cc5ccc(O)c6c5[C@@]2(CCN4CC2CC2)[C@H]3O6)c1 | 3.39 | 7.09 min | – | –
Oc1ccc2c3c1O[C@H]1c4ncc(-c5ccccn5)cc4C[C@@]4(OCCCc5ccccc5)[C@@H](C2)N(CC2CC2)CC[C@]314 | 2.32 | 6.25 min | – | –
Oc1ccc2c3c1O[C@H]1c4ncc(-c5ccccc5)cc4C[C@@]4(OCCCCc5ccccc5)[C@@H](C2)N(CC2CC2)CC[C@]314 | 2.33 | 16.8 min | – | –
Cc1cccc(C)c1-c1cnc2c(c1)C[C@@]1(OCCCc3ccccc3)[C@H]3Cc4ccc(O)c5c4[C@@]1(CCN3CC1CC1)[C@H]2O5 | 3.08 | 8.27 min | – | –
COc1ccc(-c2cnc3c(c2)C[C@@]2(OCCCc4ccccc4)[C@H]4Cc5ccc(O)c6c5[C@@]2(CCN4CC2CC2)[C@H]3O6)cc1 | 1.93 | 9.03 min | 10 min | –
Cc1ccc(-c2cnc3c(c2)C[C@@]2(OCCCc4ccccc4)[C@H]4Cc5ccc(O)c6c5[C@@]2(CCN4CC2CC2)[C@H]3O6)cc1 | 2.44 | 7.86 min | – | –
COc1cccc(-c2cnc3c(c2)C[C@@]2(OCCCc4ccccc4)[C@H]4Cc5ccc(O)c6c5[C@@]2(CCN4CC2CC2)[C@H]3O6)c1 | 2.58 | 10.5 min | – | –

SMILES | logD [1] | t1/2 [2] | Time (Mus musculus [3]) | Activity (Mus musculus [4])
Oc1ccc2c3c1O[C@H]1c4ncc(-c5ccc(Cl)cc5)cc4C[C@@]4(OCCOc5ccccc5)[C@@H](C2)N(CC2CC2)CC[C@]314 | 2.72 | 160 min | – | –
Oc1ccc2c3c1O[C@H]1c4ncc(-c5ccncn5)cc4C[C@@]4(OCCCc5ccccc5)[C@@H](C2)N(CC2CC2)CC[C@]314 | 3.3 | 10.1 min | – | –
CN(C)c1ccc(-c2cnc3c(c2)C[C@@]2(OCCCc4ccccc4)[C@H]4Cc5ccc(O)c6c5[C@@]2(CCN4CC2CC2)[C@H]3O6)cc1 | 1.87 | 7.83 min | – | –
Cc1nnc(-c2cnc3c(c2)C[C@@]2(OCCCc4ccccc4)[C@H]4Cc5ccc(O)c6c5[C@@]2(CCN4CC2CC2)[C@H]3O6)o1 | 2.85 | 6.35 min | – | 80%
Oc1ccc2c3c1O[C@H]1c4ncc(-c5ccncc5)cc4C[C@@]4(OCCCc5ccccc5)[C@@H](C2)N(CC2CC2)CC[C@]314 | 3.53 | 11.1 min | – | –
Oc1ccc2c3c1O[C@H]1c4ncc(-c5ccc(F)cc5F)cc4C[C@@]4(OCCCc5ccccc5)[C@@H](C2)N(CC2CC2)CC[C@]314 | 2.84 | 10.4 min | – | –
Cc1ccccc1-c1cnc2c(c1)C[C@@]1(OCCCc3ccccc3)[C@H]3Cc4ccc(O)c5c4[C@@]1(CCN3CC1CC1)[C@H]2O5 | 2.68 | 6.48 min | – | –
Oc1ccc2c3c1O[C@H]1c4ncc(-c5ccc(Cl)cc5)cc4C[C@@]4(OCCCc5ccncc5)[C@@H](C2)N(CC2CC2)CC[C@]314 | 1.73 | 12.2 min | – | –
COc1ccccc1-c1cnc2c(c1)C[C@@]1(OCCCc3ccccc3)[C@H]3Cc4ccc(O)c5c4[C@@]1(CCN3CC1CC1)[C@H]2O5 | 2.01 | 8.65 min | – | –
COc1cc(-c2cnc3c(c2)C[C@@]2(OCCCc4ccccc4)[C@H]4Cc5ccc(O)c6c5[C@@]2(CCN4CC2CC2)[C@H]3O6)ccn1 | 4.32 | 13.4 min | – | –
CN(C)c1ccccc1-c1cnc2c(c1)C[C@@]1(OCCCc3ccccc3)[C@H]3Cc4ccc(O)c5c4[C@@]1(CCN3CC1CC1)[C@H]2O5 | 1.93 | 9.78 min | – | –
Oc1ccc2c3c1O[C@H]1c4ncc(-c5ccccc5)cc4C[C@@]4(OCCCc5ccncc5)[C@@H](C2)N(CC2CC2)CC[C@]314 | 0.818 | 8.88 min | – | –
Oc1ccc2c3c1O[C@H]1c4ncc(-c5cnccn5)cc4C[C@@]4(OCCCc5ccccc5)[C@@H](C2)N(CC2CC2)CC[C@]314 | 3.55 | 8.72 min | – | –
Oc1ccc2c3c1O[C@H]1c4ncc(-c5ccccc5)cc4C[C@@]4(OCCCc5ccccc5)[C@@H](C2)N(CC2CC2)CC[C@]314 | 0.868 | 8.96 min | – | –
CN(C)Cc1ccccc1-c1cnc2c(c1)C[C@@]1(OCCCc3ccccc3)[C@H]3Cc4ccc(O)c5c4[C@@]1(CCN3CC1CC1)[C@H]2O5 | 3.65 | 12.7 min | – | –
Oc1ccc2c3c1O[C@H]1c4ncc(-c5ccccc5)cc4C[C@@]4(OCCCc5ccc(F)cc5)[C@@H](C2)N(CC2CC2)CC[C@]314 | 2.38 | 81.1 min | – | –
Oc1ccc2c3c1O[C@H]1c4ncc(-c5cncnc5)cc4C[C@@]4(OCCCc5ccccc5)[C@@H](C2)N(CC2CC2)CC[C@]314 | 2 | 26.8 min | – | –
Oc1ccc2c3c1O[C@H]1c4ncc(-c5ccccc5C5CC5)cc4C[C@@]4(OCCCc5ccccc5)[C@@H](C2)N(CC2CC2)CC[C@]314 | 3.73 | 8.28 min | – | –
Oc1ccc2c3c1O[C@H]1c4ncc(-c5ccc(Cl)cc5)cc4C[C@@]4(OCCCc5ccccc5)[C@@H](C2)N(CC2CC2)CC[C@]314 | 0.393 | 9.72 min | – | –
Oc1ccc2c3c1O[C@H]1c4ncc(-c5cccnc5)cc4C[C@@]4(OCCCc5ccccc5)[C@@H](C2)N(CC2CC2)CC[C@]314 | 3.67 | 8.22 min | – | –
Oc1ccc2c3c1O[C@H]1c4ncc(-c5ccc(F)cc5)cc4C[C@@]4(OCCCc5ccccc5)[C@@H](C2)N(CC2CC2)CC[C@]314 | 0.428 | 10.4 min | – | –
